The text below walks through data of ChEMBL document CHEMBL1129630, “Synthesis and structure-activity relationships of retinoid X receptor selective diaryl sulfide analogs of retinoic acid” (J Med Chem, 1996).

Chains of the proteins cited; added tags and fusions are not shown.
UniProt P18911, whole entry: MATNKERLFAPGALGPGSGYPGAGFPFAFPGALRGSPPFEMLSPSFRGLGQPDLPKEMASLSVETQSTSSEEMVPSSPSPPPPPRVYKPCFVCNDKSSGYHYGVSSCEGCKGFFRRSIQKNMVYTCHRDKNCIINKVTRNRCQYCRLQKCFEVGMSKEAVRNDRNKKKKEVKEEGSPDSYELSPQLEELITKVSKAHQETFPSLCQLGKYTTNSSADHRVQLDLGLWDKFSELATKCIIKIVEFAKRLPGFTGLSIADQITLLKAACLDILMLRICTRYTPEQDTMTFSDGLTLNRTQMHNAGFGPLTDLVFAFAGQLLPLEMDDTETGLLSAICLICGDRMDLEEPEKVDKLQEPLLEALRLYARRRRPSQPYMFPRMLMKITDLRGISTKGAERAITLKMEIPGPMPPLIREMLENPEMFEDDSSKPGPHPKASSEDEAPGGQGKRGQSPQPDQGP

Assay [1] concerns the target T1, Retinoic acid receptor RXR-beta (Homo sapiens, UniProt P28702).
T1 sequence (P28702 whole entry): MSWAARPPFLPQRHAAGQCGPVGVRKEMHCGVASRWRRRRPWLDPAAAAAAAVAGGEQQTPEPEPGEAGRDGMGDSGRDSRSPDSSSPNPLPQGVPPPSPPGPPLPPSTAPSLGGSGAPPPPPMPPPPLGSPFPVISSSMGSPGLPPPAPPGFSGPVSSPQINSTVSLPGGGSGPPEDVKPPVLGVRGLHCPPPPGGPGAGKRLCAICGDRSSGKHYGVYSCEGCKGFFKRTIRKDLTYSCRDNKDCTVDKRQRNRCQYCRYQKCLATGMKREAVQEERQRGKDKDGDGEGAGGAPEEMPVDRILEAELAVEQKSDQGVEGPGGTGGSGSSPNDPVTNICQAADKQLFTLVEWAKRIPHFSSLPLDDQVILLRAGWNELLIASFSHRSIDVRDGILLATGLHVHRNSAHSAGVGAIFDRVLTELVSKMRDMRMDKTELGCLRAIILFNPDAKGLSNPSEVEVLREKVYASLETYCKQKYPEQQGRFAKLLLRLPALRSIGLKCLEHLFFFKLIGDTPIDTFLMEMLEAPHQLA
In words: Transcriptional activation of Retinoid X receptor RXR beta. Set-up: species or system Cercopithecidae.

The target in assay [2] is Retinoic acid receptor gamma (Mus musculus, UniProt P18911). The assay can be described thus: Dissociation constant for binding to Retinoic acid receptor gamma. Put shortly:
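Competitive binding assays against each receptor subtype, with Kd values taken from competition.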

One may read the EC50 as the concentration needed to bring the measured effect to its halfway point. The low end stands for a more potent agent, the high end for a less potent agent. Turning to `CC1(C)CCC(C)(C)c2cc(Sc3ccc(C(=O)O)cc3)ccc21`, in assay [1], a half-maximal response (EC50) required 1600 nM. As usually defined, the Kd is the equilibrium constant for the complex coming apart. A low value points to higher affinity. Compound `CC1=C(/C=C/C(C)=C\C=C\C(C)=C\C(=O)O)C(C)(C)CCC1` [ALITRETINOIN] showed a Kd in assay [2] of 17 nM. The same measure, in the same setting: as for `CC1=C(/C=C/C(C)=C/C=C/C(C)=C/C(=O)O)C(C)(C)CCC1` [TRETINOIN], the figure is 18 nM.
